## AlphaSeq binding of Ab-14 light chain variants to a spike HR2 peptide

Values reported by Engelhart et al. 2022, doi:10.1038/s41597-022-01779-4 (FLAb copy).

Antigen: PDVDLGDISGINAS, a 14-residue peptide of the SARS-CoV-2 spike HR2 region.

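Phage display of a naive human antibody library on the peptide gave the parent. Library AAYL50 holds single substitutions and randomly drawn double and triple substitutions in the CDRs. Affinity was read by AlphaSeq, a pooled yeast mating assay with surface-displayed partners. Binding brings cells together so that they mate, and sequencing counts the barcode pairs among the diploids. A regression on co-assayed BCL2-family reference pairs converts the normalised counts of each replicate to an apparent Kd. The assay was run in three technical replicates.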

Parent: Ab-14, a human scFv built as VH, a (GGGGS)3 linker, VL. Only the CDRs of the light chain vary.
VH: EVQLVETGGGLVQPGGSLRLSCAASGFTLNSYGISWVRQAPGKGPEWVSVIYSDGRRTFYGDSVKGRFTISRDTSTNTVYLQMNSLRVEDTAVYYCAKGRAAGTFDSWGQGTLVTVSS
VL: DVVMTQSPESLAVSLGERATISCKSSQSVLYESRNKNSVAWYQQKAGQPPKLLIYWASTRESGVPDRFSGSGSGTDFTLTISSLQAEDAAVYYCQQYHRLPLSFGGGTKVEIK

Substitutions are numbered in sequence along the VL above, starting at 1 (not Kabat).
Every variant below is changed at N35 of the VL (sequential numbering).
Affinities are written as log10 Kd with Kd in nM; a lower number is a better binder.
A pair that was not seen in that replicate is written "nd"; this usually means weak binding, but a binder can also be missed.
As a blank, each scFv also met three strains without target: over library AAYL50, 18% of these pairings were detected, typically at 4.19 and seldom below 2.99.

* S28W N35R A57M -> nd, nd, nd
* N35E A40W A57D -> nd, nd, 3.78
* N35K A40C R99P -> nd, nd, nd
* R34W N35F -> 2.09, 2.14, 2.10
* Q27F N35H T59W -> nd, nd, 3.06
* Y31C N35Q E61H -> 2.22, 3.90, 3.35
* N35W V39E Q96L -> nd, 4.18, nd
* N35R A57R -> nd, 4.00, nd
* S26N N35P S62H -> 2.07, 2.68, 1.99
* N35M S58M S62Y -> nd, nd, nd
* N35Y H98M S103Y -> 2.03, 1.94, 2.29
* N35K Q96I -> 5.26, nd, nd
* N35H Q95H R99E -> 1.14, 1.31, 1.56
* N35H -> 1.44, 1.31, 1.78
* E32A N35H V39Y -> 4.11, 4.30, 4.57
* S25F Y31N N35V -> 0.98, 1.05, 0.91
* N35Q Y97D S103G -> nd, nd, nd
* S33K N35Q H98N -> 2.94, 2.68, 2.80
* S28V N35I Q96F -> 3.31, 2.91, 3.79
* Q27H N35Y Q95N -> nd, nd, nd
* N35G R60V Q95W -> nd, nd, nd
* Y31C N35R A57Y -> nd, nd, nd
* S28K N35P A57D -> nd, nd, nd
* V29P S33Y N35R -> 1.57, 1.40, 1.57
* S26A N35H E61G -> 2.22, 2.27, 2.62
* L30H N35Y Q96N -> nd, nd, nd
* N35F K36C E61H -> 3.13, 4.21, nd
* N35R S58K H98E -> 3.29, nd, 3.91
* Y31R N35P E61I -> 2.58, 2.62, 2.59
* N35G V39L S58G -> 1.07, 1.26, 1.20
* N35S H98V L100M -> 2.41, 2.25, 2.38
* Y31S N35W R60M -> 2.43, 1.89, 1.99
* L30P S33I N35T -> 1.48, 1.39, 1.77
* N35I L102E -> 2.40, 2.37, 3.11
* S26F N35S A57Y -> nd, nd, nd
* N35A S62V Y97P -> nd, nd, nd
* N35F N37V E61S -> nd, nd, nd
* N35E N37H S58T -> nd, nd, 4.03
* N35T N37P A40F -> 5.59, nd, 5.66
* N35Q W56Y R60V -> 3.06, nd, nd
* Y31T N35M R99W -> 3.33, 2.72, 3.96
* L30E N35R -> 1.11, 1.30, 1.37
* N35Y A57Q S103Y -> nd, nd, nd
* Y31Q E32F N35D -> 0.62, 0.83, 0.72
* N35E S58Q -> 1.55, 1.29, 1.40
* N35D V39R L102F -> 6.31, nd, nd
* L30M N35I A57P -> nd, nd, nd
* N35K N37Q L102I -> 3.89, 3.02, 3.73
* S33Q N35F -> 1.27, 1.62, 1.20

The closing 8 entries, repeated:

changes,log10 Kd (nM) by replicate
L30E N35R,"1.11, 1.30, 1.37"
N35Y A57Q S103Y,"nd, nd, nd"
Y31Q E32F N35D,"0.62, 0.83, 0.72"
N35E S58Q,"1.55, 1.29, 1.40"
N35D V39R L102F,"6.31, nd, nd"
L30M N35I A57P,"nd, nd, nd"
N35K N37Q L102I,"3.89, 3.02, 3.73"
S33Q N35F,"1.27, 1.62, 1.20"

Parent in this assay: reference entry 0.65, copy in this library 1.68.